Laboratory results published in patent US20180325914A1, “INCREASING STORAGE OF VITAMIN A, VITAMIN D AND/OR LIPIDS” (Salk Institute for Biological Studies, priority 2014, published 2018).

Tested on: primary HSCs

SMILES: Cc1sc2c(c1C)C(c1ccc(Cl)cc1)=N[C@@H](CC(=O)OC(C)(C)C)c1nnc(C)n1-2 [JQ1, (S)-tert-butyl 2-(4-(4-chlorophenyl)-2,3,9-trimethyl-6H-thieno[3,2-f][1,2,4]triazolo[4,3-a][1,4]diazepin-6-yl)acetate]
- Kif26b log2(fold_change): −2.0125
- Kifc1 log2(fold_change): 0.8611
- Klhl13 log2(fold_change): 0.9742
- Klhl26 log2(fold_change): −0.3596
- LOC100616095 log2(fold_change): −0.8973
- Lama1 log2(fold_change): 0.9865
- Lama2 log2(fold_change): −0.5798
- Lamb2 log2(fold_change): 0.4221
- Lars2 log2(fold_change): −0.6395
- Lclat1 log2(fold_change): −0.4544
- Lepre1 log2(fold_change): −0.3157
- Leprel1 log2(fold_change): −0.5121
- Leprel2 log2(fold_change): −0.3874
- Lgals1 log2(fold_change): −0.4625
- Lhfp log2(fold_change): 0.4217
- Lims2 log2(fold_change): −1.8928
- Lmod1 log2(fold_change): −2.7688
- Lox13 log2(fold_change): −1.6979
- Lox14 log2(fold_change): −2.7091
- Lox log2(fold_change): −2.7213
- Loxl1 log2(fold_change): −0.363
- Loxl2 log2(fold_change): −0.3528
- Lphn1 log2(fold_change): 0.6029
- Lpp log2(fold_change): −0.8444
- Lrig3 log2(fold_change): −0.6347
- Lrrn2 log2(fold_change): −1.6153
- Lrrn4 log2(fold_change): −0.7786
- Ltbp1 log2(fold_change): −2.6745
- Ltbp2 log2(fold_change): −4.9117
- Lum log2(fold_change): 1.427
- Mad2l1 log2(fold_change): 0.8718
- Maged2 log2(fold_change): −0.5844
- Mageh1 log2(fold_change): −0.3127
- Man2b2 log2(fold_change): −0.5072
- Mapk8ip1 log2(fold_change): 1.101
- Mboat7 log2(fold_change): −0.7968
- Meg3 log2(fold_change): −0.8796
- Meis1 log2(fold_change): 0.8249
- Melk log2(fold_change): 0.6233
- Mfap4 log2(fold_change): −6.3503
- Mfap5 log2(fold_change): −6.5064
- Mfge8 log2(fold_change): 0.4139
- Mgp log2(fold_change): −2.6459
- Mki67 log2(fold_change): 0.7334
- Mlec log2(fold_change): −0.5749
- Mmgt2 log2(fold_change): −0.7004
- Mmp2 log2(fold_change): −0.6604
- Mmp11 log2(fold_change): 0.6115
- Mmp17 log2(fold_change): 1.56
- Mmp23 log2(fold_change): −2.9097
- Mpp2 log2(fold_change): −0.8039
- Mpzl1 log2(fold_change): −0.4362
- Mrap log2(fold_change): −5.3852
- Mras log2(fold_change): 0.4702
- Mrc2 log2(fold_change): 0.5435
- Mrgprf log2(fold_change): −2.7091
- Mrvi1 log2(fold_change): −2.3226
- Msx1 log2(fold_change): 0.5226
- Mxd4 log2(fold_change): 0.8047
- Myh10 log2(fold_change): −0.2233
- Myh11 log2(fold_change): −2.346
- Myl6 log2(fold_change): −0.275
- Myl9 log2(fold_change): −2.601
- Mylk log2(fold_change): −0.4574
- Myo1d log2(fold_change): −0.4602
- Myof log2(fold_change): −0.2331
- Naalad2 log2(fold_change): −3.1434
- Nav2 log2(fold_change): −0.8808
- Ncam1 log2(fold_change): −2.3364
- Ncapd2 log2(fold_change): 0.8923
- Ncapg2 log2(fold_change): 0.929
- Ncaph log2(fold_change): 1.061
- Ndc80 log2(fold_change): 0.5775
- Ndn log2(fold_change): −0.8354
- Ndrg2 log2(fold_change): −1.7138
- Nek2 log2(fold_change): 0.8335
- Nexn log2(fold_change): −2.2263
- Nfatc4 log2(fold_change): −3.0565
- Nid2 log2(fold_change): −0.2731
- Nkd1 log2(fold_change): 0.7012
- Nnmt log2(fold_change): −0.8991
- Npr2 log2(fold_change): −0.6889
- Npr3 log2(fold_change): −2.9719
- Nradd log2(fold_change): −0.7888
- Nts log2(fold_change): −1.6204
- Nuak1 log2(fold_change): −0.6648
- Nudt18 log2(fold_change): −0.7117
- Nuf2 log2(fold_change): 0.5595
- Numbl log2(fold_change): −0.3544
- Nusap1 log2(fold_change): 0.9007
- Oat log2(fold_change): 0.5311
- Obsl1 log2(fold_change): −1.7738
- Ogdhl log2(fold_change): −0.8041
- Olfm2 log2(fold_change): −3.6554
- Osbpl5 log2(fold_change): 0.4402
- Osr1 log2(fold_change): 0.6503
- P2ry14 log2(fold_change): −4.7389
- P4ha1 log2(fold_change): −0.4941
- P4ha3 log2(fold_change): −3.0265
- Palld log2(fold_change): −1.5296
- Paqr8 log2(fold_change): −0.5827
- Pbx1 log2(fold_change): 0.6233
- Pcolce log2(fold_change): −0.8139
- Pcsk5 log2(fold_change): −1.6254
- Pcsk6 log2(fold_change): 1.1413
- Pcyox1 log2(fold_change): 1.187
- Pde1a log2(fold_change): −1.6717
- Pde4dip log2(fold_change): −0.722
- Pdgfc log2(fold_change): −3.7166
- Pdgfrl log2(fold_change): −5.1348
- Pdia5 log2(fold_change): −0.7751
- Pdlim3 log2(fold_change): −4.1531
- Pdlim4 log2(fold_change): −1.7311
- Peg3 log2(fold_change): 2.024
- Peg10 log2(fold_change): 1.039
- Pfkfb4 log2(fold_change): −1.5699
- Pgcp log2(fold_change): −0.7169
- Pgm2 log2(fold_change): −0.7504
- Phlda3 log2(fold_change): −0.3766
- Phldb2 log2(fold_change): −0.3815
- Phyhd1 log2(fold_change): −2.3012
- Pkia log2(fold_change): 1.35
- Pkig log2(fold_change): −0.806
- Pla1a log2(fold_change): −3.9137
- Pla2g4a log2(fold_change): −0.8688
- Pla2g15 log2(fold_change): −0.4485
- Pla2r1 log2(fold_change): 0.9975
- Plac8 log2(fold_change): −1.882
- Plat log2(fold_change): 1.118
- Pld3 log2(fold_change): 0.4667
- Plekhg3 log2(fold_change): −0.4255
- Plod3 log2(fold_change): −0.8533
- Plp2 log2(fold_change): −2.055
- Plscr2 log2(fold_change): −2.11
- Plscr4 log2(fold_change): −0.4802
- Plxdc2 log2(fold_change): 0.439
- Pmepa1 log2(fold_change): −1.7518
- Pmm1 log2(fold_change): −0.3075
- Pmp22 log2(fold_change): −0.4263
- Podn log2(fold_change): −2.3482
- Polr3k log2(fold_change): −0.2305
- Pon3 log2(fold_change): −0.3857
- Popdc2 log2(fold_change): −1.6959
- Postn log2(fold_change): −3.2953
- Ppapdc1b log2(fold_change): −1.5748
- Ppp1r14a log2(fold_change): −1.7904
- Ppp2r5b log2(fold_change): −0.6772
- Pppde2 log2(fold_change): −0.4418
- Praf2 log2(fold_change): −0.7369
- Prc1 log2(fold_change): 0.6253
- Prdx2 log2(fold_change): −0.4976
- Prelid2 log2(fold_change): −2.8884
- Prelp log2(fold_change): 1.089
- Prickle1 log2(fold_change): −0.428
- Prkar1b log2(fold_change): −3.2629
- Prnp log2(fold_change): −0.5434
- Prrc1 log2(fold_change): −0.4987
- Prss35 log2(fold_change): 1.361
- Psd3 log2(fold_change): −0.5624
- Psrc1 log2(fold_change): −2.209
- Pstpip1 log2(fold_change): −5.1076
- Pter log2(fold_change): −2.1616
- Ptger3 log2(fold_change): −0.5801
- Ptgfrn log2(fold_change): −0.7379
- Ptgr1 log2(fold_change): 0.6805
- Ptgs2 log2(fold_change): −4.683
- Ptk2b log2(fold_change): −0.5496
- Ptms log2(fold_change): 1.352
- Ptpla log2(fold_change): −1.8584
- Ptplad2 log2(fold_change): −0.3185
- Ptprn log2(fold_change): −2.9328
- Ptrf log2(fold_change): 0.8162
- Pvrl2 log2(fold_change): −0.3051
- Pxmp4 log2(fold_change): 0.6931
- Pygb log2(fold_change): 0.6232
- Pygl log2(fold_change): −2.455
- Qpct log2(fold_change): 1.329
- Qsox1 log2(fold_change): −0.5335
- Rab7l1 log2(fold_change): −2.0329
- Rab15 log2(fold_change): −2.0667
